We go through seven compounds from PubChem BioAssay AID1240 (Sanford-Burnham Center for Chemical Genomics, 2008).

The chains behind the UniProt entries cited, without tags or fusion partners.
UniProt Q9HD36, whole entry: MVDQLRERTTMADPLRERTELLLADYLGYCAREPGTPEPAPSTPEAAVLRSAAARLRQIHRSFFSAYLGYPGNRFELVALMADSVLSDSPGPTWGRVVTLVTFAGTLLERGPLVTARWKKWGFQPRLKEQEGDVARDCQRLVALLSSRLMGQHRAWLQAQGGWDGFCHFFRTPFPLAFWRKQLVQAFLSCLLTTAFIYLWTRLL
UniProt P22736, whole entry partner: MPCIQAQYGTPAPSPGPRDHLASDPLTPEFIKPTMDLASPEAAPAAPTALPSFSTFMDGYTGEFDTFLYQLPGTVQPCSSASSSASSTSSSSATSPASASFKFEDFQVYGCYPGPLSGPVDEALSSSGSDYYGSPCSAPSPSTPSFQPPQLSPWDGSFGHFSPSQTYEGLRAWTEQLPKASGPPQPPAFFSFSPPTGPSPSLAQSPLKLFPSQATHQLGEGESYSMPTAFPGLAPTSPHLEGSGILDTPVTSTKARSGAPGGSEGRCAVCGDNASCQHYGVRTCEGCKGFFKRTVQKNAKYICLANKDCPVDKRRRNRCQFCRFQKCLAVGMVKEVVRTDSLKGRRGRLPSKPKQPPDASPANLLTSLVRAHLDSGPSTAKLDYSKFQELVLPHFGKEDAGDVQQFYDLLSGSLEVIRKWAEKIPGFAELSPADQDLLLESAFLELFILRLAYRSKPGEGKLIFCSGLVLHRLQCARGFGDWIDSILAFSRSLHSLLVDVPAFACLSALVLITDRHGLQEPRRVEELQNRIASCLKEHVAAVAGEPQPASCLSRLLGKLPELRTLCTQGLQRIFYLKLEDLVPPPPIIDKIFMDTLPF

The list shows a part of the results, in another mix than the full data.

This assay addresses Bcl-2-like protein 10 (Homo sapiens) (UniProt Q9HD36). Description: Phenotype converters, Bcl-B/TR3 peptide binding displacement, primary biochemical FP (AID 1240).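 Note: 0% = Bcl-B with tracer peptide and DMSO and 100% = tracer peptide lacking Bcl-B.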 The conditions noted are these: GST-Bcl-B / FITC-TR3 peptide fluorescence polarization; stronger effect = higher value; compound at 3.75 mg/L. (In general: Polarisation of emitted light reports the rotation of a fluorescent probe.)
Regarding `CP(=O)(Oc1ccc(F)cc1)Oc1ccc(F)cc1`, the displacement stood at 19%.

Regarding `CCc1ccc(OP(C)(=O)O)cc1`, the displacement is -0.5%.

`CN(C)CCOC(=O)C(O)(c1ccccc1)c1ccccc1`: the displacement was -1.5%.

As for `CCOP(C)(=S)SCC(=O)NC(C)C(=O)O` (configuration not stated), the displacement stood at 1%.

With `CP(=O)(Oc1ccccc1F)Oc1ccccc1F`, the displacement was 15.7%.

As for `CP(=O)(Oc1ccccc1)Oc1ccccc1`, the displacement was determined as 11.5%.

As for `CP(=O)(Oc1ccc(Cl)cc1)Oc1ccc(Cl)cc1`, the displacement is 14.9%.
